Target: Prostaglandin G/H synthase 1 (Homo sapiens, UniProt P23219)

Chains of the proteins cited; added tags and fusions are not shown.
UniProt P23219, whole entry: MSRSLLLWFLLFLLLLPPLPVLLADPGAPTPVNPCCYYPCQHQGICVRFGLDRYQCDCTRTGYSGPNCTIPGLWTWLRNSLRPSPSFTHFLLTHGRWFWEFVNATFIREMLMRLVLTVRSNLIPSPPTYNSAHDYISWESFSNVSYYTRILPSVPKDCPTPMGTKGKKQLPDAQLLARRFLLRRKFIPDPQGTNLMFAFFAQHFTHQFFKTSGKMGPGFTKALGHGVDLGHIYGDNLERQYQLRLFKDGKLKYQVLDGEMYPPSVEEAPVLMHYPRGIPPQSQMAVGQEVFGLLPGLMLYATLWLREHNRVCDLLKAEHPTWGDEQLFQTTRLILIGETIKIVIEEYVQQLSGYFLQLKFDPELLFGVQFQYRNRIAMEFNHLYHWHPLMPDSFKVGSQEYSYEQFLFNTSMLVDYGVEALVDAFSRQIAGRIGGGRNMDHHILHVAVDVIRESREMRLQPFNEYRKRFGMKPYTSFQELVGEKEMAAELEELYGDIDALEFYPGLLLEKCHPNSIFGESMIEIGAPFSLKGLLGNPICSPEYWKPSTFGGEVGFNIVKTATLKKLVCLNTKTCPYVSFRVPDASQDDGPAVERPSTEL

Oc1ccc(/C=C/c2cc(O)cc(O)c2)cc1 [5-[(E)-2-(4-hydroxyphenyl)ethenyl]benzene-1,3-diol]
Ki: > 10 µM

— BindingDB's records for doi:10.1073/pnas.96.13.7563 (St. Bartholomew's and The Royal London School of …, 1999)
